For 1 molecule, Kd results are on record in patent US7442702B2, “Prostaglandin agonists” (priority 1997, dated 2008).

The chains behind the UniProt entries cited, without tags or fusion partners. Where a name states a change or a piece, a line headed by the entry shows the natural chain unless it says otherwise.
UniProt P43116: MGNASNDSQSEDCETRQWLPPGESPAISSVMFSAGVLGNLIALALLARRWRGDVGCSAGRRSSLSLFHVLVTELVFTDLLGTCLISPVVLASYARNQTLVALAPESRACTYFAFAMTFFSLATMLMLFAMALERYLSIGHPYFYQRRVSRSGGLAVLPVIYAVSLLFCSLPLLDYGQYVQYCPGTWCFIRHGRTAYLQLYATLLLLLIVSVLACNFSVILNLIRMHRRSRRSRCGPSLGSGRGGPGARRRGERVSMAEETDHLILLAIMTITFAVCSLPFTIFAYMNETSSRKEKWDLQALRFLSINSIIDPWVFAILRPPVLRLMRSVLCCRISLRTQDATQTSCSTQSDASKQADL

This assay addresses T1, human EP2 receptor (Homo sapiens, UniProt P43116).
T1 construct: cDNAs representing the complete open reading frames of the human EP2 and EP4 receptors; expressed in transfected cells
Kind of assay: Scatchard analysis of specific [3H]PGE2 binding in 293-S line stably overexpressing recombinant human EP2. As to conditions: read-out: Kd for PGE2 (EP2), 293-S/EP2 line selected for compound screening, approximately 338,400 receptors per cell.

In the case of `CCCCC[C@H](O)/C=C/[C@H]1[C@H](O)CC(=O)[C@@H]1C/C=C\CCCC(=O)O` [PGE2, Prostaglandin E2], the Kd came out at 12 nM.
